Source: patent publication US7358236B1 (priority 2002, dated 2008)
Some compounds may have been tested in ways that are not shown here.

Experiments:
P22 rat carcinosarcoma = test: Tumor blood flow (THF) measured with radioactive tracer 125I-iodoantipyrine; conditions: antihypertensive co-administered with CA-4DP 30 mg/kg i.p., approximately 1 hour after treatment
[1] = Control of blood pressure (MABP via arterial cannula) in VTA-treated anaesthetized healthy rats; conditions: SNP infused 20 ug/kg/min at first sign of MABP increase after CA-4DP 30 mg/kg
[2] = MABP and heart rate in tumor-bearing, VTA-treated rats 1 hour after dosing; conditions: antihypertensive co-administered with CA-4DP 30 mg/kg i.p.

Disodium Pentacyaanonitrosylferrate (2-)dihydrate
Tumor blood flow, % of control (P22 rat carcinosarcoma): 12.6 % of control | Effect on CA-4DP-induced MABP increase [1]: prolonged stabilization of MABP | MABP ([2]; 1 hour after CA-4DP dosing): 82.7 mmHg | Heart Rate ([2]; 1 hour post CA-4DP dosing): 414.4 bpm
